pEC50, pIC50: −log10 of the molar value. Where two headings read alike, the source gives them in different places.
What was measured:
[1] = target: SREBP-2 (Homo sapiens (Human), UniProt Q12772); assay: In vitro assay SREBP-2: PathHunter U2OS SREBP-2 Nuclear Translocation Cell Line, U18666A-stimulated; assay type: cell-based
[2] = target: LXRβ (Homo sapiens (Human), UniProt P55055); assay: In vitro assay LXRβ: PathHunter NHR CHO cells, LXRβ / Steroid Receptor Co-activator Peptide enzyme fragment complementation; assay type: cell-based
Summary of the method: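 Enzyme fragment complementation read-out: CHO cells stably expressing ProLink-tagged full-length human LXRβ plus nuclear enzyme acceptor–SRCP fusion, seeded and held overnight at 37° C. Medium with charcoal-dextran filtered serum; final vehicle 1%. Chemiluminescence measured after signal generation.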

By UniProt entry, the sequences of proteins in these tests, tags left out.
UniProt P55055, whole entry: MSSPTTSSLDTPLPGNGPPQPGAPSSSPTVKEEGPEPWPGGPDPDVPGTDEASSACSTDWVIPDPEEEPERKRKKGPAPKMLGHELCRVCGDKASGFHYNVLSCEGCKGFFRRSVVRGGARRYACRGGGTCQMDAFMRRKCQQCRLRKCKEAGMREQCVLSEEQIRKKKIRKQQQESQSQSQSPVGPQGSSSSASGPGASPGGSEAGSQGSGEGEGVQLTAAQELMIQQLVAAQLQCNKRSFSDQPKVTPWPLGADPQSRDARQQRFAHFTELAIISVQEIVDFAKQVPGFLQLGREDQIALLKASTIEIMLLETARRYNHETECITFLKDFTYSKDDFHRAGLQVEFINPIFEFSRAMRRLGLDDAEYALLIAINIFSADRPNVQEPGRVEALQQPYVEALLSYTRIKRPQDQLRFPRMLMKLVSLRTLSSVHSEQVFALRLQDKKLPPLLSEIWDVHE

[3] = PathHunter U2OS SREBP-2 nuclear translocation cells, U18666A 10 μM, overnight (16 hours), read-out: SREBP-2 IC50
[4] = PathHunter NHR CHO cells, full-length human LXRβ and SRCP, chemiluminescent signal, read-out: LXRβ PPI

Molecule	pIC50 [1, 3]	pIC50 ([1]; read-out: SREBP-2 IC50)	also measured
C[C@H](CCC(=O)N1CCC(O)(C#N)CC1)[C@H]1CC[C@H]2[C@@H]3CC=C4C[C@@H](O)CC[C@]4(C)[C@H]3CC[C@]12C [Example 384, 1-[(4R)-4-[(1R,3aS,3bS,7S,9aR,9bS,11aR)-7-hydroxy-9a,11a-dimethyl-1H,2H,3H,3aH,3bH,4H,6H,7H,8H,9H,9aH,9bH,10H,11H,11aH-cyclopenta[a]phenanthren-1-yl]pentanoyl]-4-hydroxypiperidine-4-carbonitrile]	–	–	pIC50 ([1]; SREBP-2 IC50): > 6.60; pEC50 [2]: > 6.60
C[C@H](CCC(=O)N1CCC(O)(C2CCCCC2)CC1)[C@H]1CC[C@H]2[C@@H]3CC=C4C[C@@H](O)CC[C@]4(C)[C@H]3CC[C@]12C [Example 383, (R)-1-(4-cyclohexyl-4-hydroxypiperidin-1-yl)-4-((3S,8S,9S,10R,13R,14S,17R)-3-hydroxy-10,13-dimethyl-2,3,4,7,8,9,10,11,12,13,14,15,16,17-tetradecahydro-1H-cyclopenta[a]phenanthren-17-yl)pentan-1-one]	> 6.60	–	pEC50 [2]: < 5.00
C[C@H](CCC(=O)N1CC[C@@H](CO)C1)[C@H]1CC[C@H]2[C@@H]3CC=C4C[C@@H](O)CC[C@]4(C)[C@H]3CC[C@]12C [Example 234, (R)-4-((3S,8S,9S,10R,13R,14S,17R)-3-hydroxy-10,13-dimethyl-2,3,4,7,8,9,10,11,12,13,14,15,16,17-tetradecahydro-1H-cyclopenta[a]phenanthren-17-yl)-1-((R)-3-(hydroxymethyl)pyrrolidin-1-yl)pentan-1-one]	> 6.60	–	–
C[C@H](CCC(=O)N1CCS(=O)(=O)CC1)[C@H]1CC[C@H]2[C@@H]3CC=C4C[C@@H](O)CC[C@]4(C)[C@H]3CC[C@]12C [Example 9, (R)-1-(1,1-dioxidothiomorpholino)-4-((3S,8S,9S,10R,13R,14S,17R)-3-hydroxy-10,13-dimethyl-2,3,4,7,8,9,10,11,12,13,14,15,16,17-tetradecahydro-1H-cyclopenta[a]phenanthren-17-yl)pentan-1-one]	> 6.60	–	pEC50 [2]: < 5.00
C[C@@H](CCC(=O)N(C)[C@H]1CC[C@@H](C(=O)N(C)C)CC1)[C@H]1CC[C@H]2[C@@H]3CC=C4C[C@@H](O)CC[C@]4(C)[C@H]3CC[C@]12C [Example 297, (1S,4s)-4-((R)-4-((3S,8S,9S,10R,13R,14S,17R)-3-hydroxy-10,13-dimethyl-2,3,4,7,8,9,10,11,12,13,14,15,16,17-tetradecahydro-1H-cyclopenta[a]phenanthren-17-yl)-N-methylpentanamido)-N,N-dimethylcyclohexane-1-carboxamide]	–	> 6.60	pEC50 [2, 4]: < 5.00
(1R,4r)-4-((R)-4-((3S,8S,9S,10R,13R,14S,17R)-3-hydroxy-10,13-dimethyl-2,3,4,7,8,9,10,11,12,13,14,15,16,17-tetradecahydro-1H-cyclopenta[a]phenanthren-17-yl)-N-methylpentanamido)-N,N-dimethylcyclohexane-1-carboxamide [Example 296]	–	> 6.60	pEC50 [2, 4]: < 5.00
C[C@H](CCC(=O)N1CC[C@H](CO)C1)[C@H]1CC[C@H]2[C@@H]3CC=C4C[C@@H](O)CC[C@]4(C)[C@H]3CC[C@]12C [Example 233, (4R)-4-[(1R,3aS,3bS,7S,9aR,9bS,11aR)-7-hydroxy-9a,11a-dimethyl-1H,2H,3H,3aH,3bH,4H,6H,7H,8H,9H,9aH,9bH,10H,11H,11aH-cyclopenta[a]phenanthren-1-yl]-1-[(3S)-3-(hydroxymethyl)pyrrolidin-1-yl]pentan-1-one]	> 6.60	–	–
COC(=S)N1CCN(C(=O)CC[C@@H](C)[C@H]2CC[C@H]3[C@@H]4CC=C5C[C@@H](O)CC[C@]5(C)[C@H]4CC[C@]23C)CC1 [Example 549, O-methyl4-((R)-4-((3S,8S,9S,10R,13R,14S,17R)-3-hydroxy-10,13-dimethyl-2,3,4,7,8,9,10,11,12,13,14,15,16,17-tetradecahydro-1H-cyclopenta[a]phenanthren-17-yl)pentanoyl)piperazine-1-carbothioate]	–	> 6.60	–
C[C@H](CCC(=O)N(C)OC1CC1)[C@H]1CC[C@H]2[C@@H]3CC=C4C[C@@H](O)CC[C@]4(C)[C@H]3CC[C@]12C [Example 37, (R)—N-cyclopropoxy-4-((3S,8S,9S,10R,13R,14S,17R)-3-hydroxy-10,13-dimethyl-2,3,4,7,8,9,10,11,12,13,14,15,16,17-tetradecahydro-1H-cyclopenta[a]phenanthren-17-yl)-N-methylpentanamide]	–	6.00 to 6.60	pEC50 [2]: 6.00 to 6.60
C[C@H](CCC(=O)N(C)C)[C@H]1CC[C@H]2[C@@H]3CC=C4C[C@@H](O)C[C@H](O)[C@]4(C)[C@H]3CC[C@]12C [Example 123, (R)-4-((1S,3R,8S,9S,10R,13R,14S,17R)-1,3-dihydroxy-10,13-dimethyl-2,3,4,7,8,9,10,11,12,13,14,15,16,17-tetradecahydro-1H-cyclopenta[a]phenanthren-17-yl)-N,N-dimethylpentanamide]	–	< 5.00	–
C[C@H](CCC(=O)N1CCN(C(=O)C2CC2)CC1)[C@H]1CC[C@H]2[C@@H]3CC=C4C[C@@H](O)CC[C@]4(C)[C@H]3CC[C@]12C [Example 314, (4R)-4-[(1R,3aS,3bS,7S,9aR,9bS,11aR)-7-hydroxy-9a,11a-dimethyl-1H,2H,3H,3aH,3bH,4H,6H,7H,8H,9H,9aH,9bH,10H,11H,11aH-cyclopenta[a]phenanthren-1-yl]-1-(4-cyclopropanecarbonylpiperazin-1-yl)pentan-1-one]	> 6.60	–	–
CC(C)C(=O)N1CCN(C(=O)CC[C@@H](C)[C@H]2CC[C@H]3[C@@H]4CC=C5C[C@@H](O)CC[C@]5(C)[C@H]4CC[C@]23C)CC1 [Example 315, (R)-4-((3S,8S,9S,10R,13R,14S,17R)-3-hydroxy-10,13-dimethyl-2,3,4,7,8,9,10,11,12,13,14,15,16,17-tetradecahydro-1H-cyclopenta[a]phenanthren-17-yl)-1-(4-isobutyrylpiperazin-1-yl)pentan-1-one]	> 6.60	–	–
C[C@H](CCC(=O)N(C)CCc1ccccn1)[C@H]1CC[C@H]2[C@@H]3CC=C4C[C@@H](O)CC[C@]4(C)[C@H]3CC[C@]12C [Example 293, (4R)-4-[(1R,3aS,3bS,7S,9aR,9bS,11aR)-7-hydroxy-9a,11a-dimethyl-1H,2H,3H,3aH,3bH,4H,6H,7H,8H,9H,9aH,9bH,10H,11H,11aH-cyclopenta[a]phenanthren-1-yl]-N-methyl-N-[2-(pyridin-2-yl)ethyl]pentanamide]	> 6.60	–	–
CNc1nccc(N2CCN(C(=O)CC[C@@H](C)[C@H]3CC[C@H]4[C@@H]5CC=C6C[C@@H](O)CC[C@]6(C)[C@H]5CC[C@]34C)CC2)n1 [Example 561, (R)-4-((3S,8S,9S,10R,13R,14S,17R)-3-hydroxy-10,13-dimethyl-2,3,4,7,8,9,10,11,12,13,14,15,16,17-tetradecahydro-1H-cyclopenta[a]phenanthren-17-yl)-1-(4-(2-(methylamino)pyrimidin-4-yl)piperazin-1-yl)pentan-1-one]	–	> 6.60	–

Source: patent US20230340011A1 (Asteroid Therapeutics, priority 2022, published 2023)
